The target in this test is human tace resistant transmembrane TNF (hTNF delta 1-12; SEQ ID NO:1 lacking amino acids 77-88) on K562 GRE reporter cells (human) (UniProt P01375). Kind of test: cell-based or functional assay.

Substance “ADC5 (anti-human TNFa antibody drug conjugate; adalimumab conjugated with a glucocorticosteroid drug linker, DAR 2)” yielded a hTNFa GRE EC50 of 0.03 µg/mL. Also, under “scale: % max”, the hTNFa GRE (% max) came out at 126.
